Z10 and IC50 data for 2 molecules are collected here from article PMC7850479, “A drug repurposing screen identifies hepatitis C antivirals as inhibitors of the SARS-CoV2 main protease” (PLoS ONE, 2021).

In assay [1] the target is T1, SARS-CoV-2 Mpro (Severe acute respiratory syndrome coronavirus 2, UniProt P0DTD1). It is filed as biochemical.
Assay [2] deals with T1, SARS-CoV-2 Mpro. Briefly: Dose validation assay (10-point dose-response), fluorescent Mpro protease assay with Ac-Abu-Tle-Leu-Gln-AFC. It is filed as biochemical. The note with it: 80nM Mpro, 32μM Ac-Abu-Tle-Leu-Gln-AFC, 10 concentrations 150 μM to 7.6 nM, n = 3, 4-parameter nonlinear regression.

With `NCCCC[C@H](NC(=O)[C@@H]1CCCN1C(=O)[C@@H]1CSSC[C@H](N)C(=O)N[C@@H](Cc2ccc(O)cc2)C(=O)N[C@@H](Cc2ccccc2)C(=O)N[C@@H](CCC(N)=O)C(=O)N[C@@H](CC(N)=O)C(=O)N1)C(=O)NCC(N)=O` [lypressin], on SARS-CoV-2 Mpro [1], the Z10 is reported as 0.2173. Molecule `CCCC[C@H](NC(=O)[C@@H]1[C@@H]2[C@H](CN1C(=O)[C@@H](NC(=O)NC1(CS(=O)(=O)C(C)(C)C)CCCCC1)C(C)(C)C)C2(C)C)C(=O)C(=O)NC1CC1` [narlaprevir] returned an IC50 on SARS-CoV-2 Mpro [2] of 1.1 µM.

As usually defined, the IC50 is the concentration that gives 50% inhibition. A high value points to weaker potency in that assay.
